According to US7538233B2, “Coumarins as iNOS inhibitors” (Aventis Pharmaceuticals Inc., priority 2003, dated 2009):

System: N=C(N)NCCC[C@H](N)C(=O)O
Experiment: purified protein, by the assay type
Conditions: 37.0 °C

Row | Substance | Km (other: human NOS-2, estimated average) | Km (other: murine NOS-2, estimated average)
1 | Human NOS-2 (Homo sapiens) | 2.38 (±1.5) μM | –
2 | Murine NOS-2 (iNOS) (Mus musculus) | – | 13.6 (±2.8) μM
